Measurements taken from publication PMC5923123, “In Vitro and In Vivo Efficacy of a Novel and Long-Acting Fungicidal Azole, PC1244, on Aspergillus fumigatus Infection” (Antimicrobial Agents and Chemotherapy, 2018).

By UniProt entry, the sequences of proteins in these tests, tags left out. Where a name states a change or a piece, a line headed by the entry shows the natural chain unless it says otherwise.
UniProt Q4WNT5: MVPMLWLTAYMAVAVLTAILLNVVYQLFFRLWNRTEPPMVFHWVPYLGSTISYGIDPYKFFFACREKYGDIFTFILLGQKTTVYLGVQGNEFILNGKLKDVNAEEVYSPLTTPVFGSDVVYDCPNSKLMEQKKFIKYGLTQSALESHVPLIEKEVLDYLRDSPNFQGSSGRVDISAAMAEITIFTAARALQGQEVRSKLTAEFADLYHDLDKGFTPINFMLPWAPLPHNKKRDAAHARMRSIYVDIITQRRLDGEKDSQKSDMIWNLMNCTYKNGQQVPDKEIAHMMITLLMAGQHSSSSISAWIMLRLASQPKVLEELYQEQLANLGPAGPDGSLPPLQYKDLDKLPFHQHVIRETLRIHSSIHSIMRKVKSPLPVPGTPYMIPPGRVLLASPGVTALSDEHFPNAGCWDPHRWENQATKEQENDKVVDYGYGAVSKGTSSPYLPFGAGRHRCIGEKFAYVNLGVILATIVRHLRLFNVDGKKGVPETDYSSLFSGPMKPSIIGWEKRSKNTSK

Target: recombinant A. fumigatus (AF293) CYP51A (Aspergillus fumigatus, UniProt Q4WNT5)
Test: CYP51 binding assay (type II difference spectra, Morrison equation)

Compound: Cc1cc(N2CCN(c3ccc(C(=O)N[C@H]4CCCC[C@@H]4O)cc3)CC2)ccc1OC[C@@H]1CO[C@@](Cn2cncn2)(c2ccc(F)cc2F)C1 [PC1244, 4-(4-(4-(((3R,5R)-5-((1H-1,2,4-triazol-1-yl)methyl)-5-(2,4-difluorophenyl)tetrahydrofuran-3-yl)methoxy)-3-methylphenyl)piperazin-1-yl)-N-((1S,2S)-2-hydroxycyclohexyl)benzamide]
- Kd: 740 nM
